Test results as given in patent publication US20050209278A1, “Piperidinyl- and piperazinyl-sulfonylmethyl hydroxamic acids and their use as protease inhibitors” (priority 2002, published 2005).

Amino acid sequences for entries named in this document (tags omitted). Residues count along the entry.
UniProt P03956, 100-469 limits assumed: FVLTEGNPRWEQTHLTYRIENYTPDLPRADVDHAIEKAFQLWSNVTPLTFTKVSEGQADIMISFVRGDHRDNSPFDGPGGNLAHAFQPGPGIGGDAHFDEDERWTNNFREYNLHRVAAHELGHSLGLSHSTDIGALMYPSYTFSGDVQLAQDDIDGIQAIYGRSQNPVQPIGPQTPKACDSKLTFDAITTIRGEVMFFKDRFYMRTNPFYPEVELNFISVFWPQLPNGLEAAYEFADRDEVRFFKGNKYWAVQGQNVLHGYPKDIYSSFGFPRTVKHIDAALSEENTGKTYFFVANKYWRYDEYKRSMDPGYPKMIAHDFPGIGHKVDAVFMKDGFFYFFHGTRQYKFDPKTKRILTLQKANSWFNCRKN
UniProt P08253, 110-660 limits assumed: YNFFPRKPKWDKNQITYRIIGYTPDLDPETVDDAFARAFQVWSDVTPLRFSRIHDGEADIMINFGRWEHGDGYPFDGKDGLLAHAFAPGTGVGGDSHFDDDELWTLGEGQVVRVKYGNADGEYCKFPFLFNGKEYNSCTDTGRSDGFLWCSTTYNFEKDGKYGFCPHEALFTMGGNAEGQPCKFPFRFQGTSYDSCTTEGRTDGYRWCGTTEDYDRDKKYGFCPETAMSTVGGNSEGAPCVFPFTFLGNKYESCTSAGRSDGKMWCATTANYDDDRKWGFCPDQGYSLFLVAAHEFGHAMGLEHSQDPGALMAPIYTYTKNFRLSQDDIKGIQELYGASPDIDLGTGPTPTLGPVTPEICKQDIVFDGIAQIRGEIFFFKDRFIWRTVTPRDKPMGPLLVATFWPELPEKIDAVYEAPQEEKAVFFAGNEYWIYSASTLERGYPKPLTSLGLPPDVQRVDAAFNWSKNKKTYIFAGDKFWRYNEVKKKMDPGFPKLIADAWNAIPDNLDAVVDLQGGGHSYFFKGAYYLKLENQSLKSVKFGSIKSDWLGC
UniProt P14780, 107-707 limits assumed: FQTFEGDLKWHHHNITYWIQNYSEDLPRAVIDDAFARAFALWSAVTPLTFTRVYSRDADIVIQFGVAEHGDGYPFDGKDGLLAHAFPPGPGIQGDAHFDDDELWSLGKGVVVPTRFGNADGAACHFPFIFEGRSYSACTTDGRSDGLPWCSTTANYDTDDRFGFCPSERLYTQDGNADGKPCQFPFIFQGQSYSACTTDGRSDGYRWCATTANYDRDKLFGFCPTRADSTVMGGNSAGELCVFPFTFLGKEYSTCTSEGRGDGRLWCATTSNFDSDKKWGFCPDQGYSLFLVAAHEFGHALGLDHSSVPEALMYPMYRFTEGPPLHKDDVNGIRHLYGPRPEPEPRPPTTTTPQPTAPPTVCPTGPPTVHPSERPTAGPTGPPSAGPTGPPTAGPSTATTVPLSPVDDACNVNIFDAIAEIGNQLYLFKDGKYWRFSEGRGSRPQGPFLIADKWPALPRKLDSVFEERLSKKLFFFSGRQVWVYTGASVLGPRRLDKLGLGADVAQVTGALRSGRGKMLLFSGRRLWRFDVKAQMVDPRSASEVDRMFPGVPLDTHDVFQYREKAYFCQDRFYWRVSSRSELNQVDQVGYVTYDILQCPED

How the values were obtained:
Type in all cases: biochemical
MMP-14 [1] = target: T1, MMP-14 (Homo sapiens, UniProt P50281); assay: In vitro MMP inhibition, Ki determination (fluorogenic substrate II); settings: read-out: MMP-14 Ki, value not in parenthesis
MMP-1 [2] = target: T2, MMP-1 (Homo sapiens, UniProt P03956); assay: as above; settings: read-out: MMP-1 Ki, value not in parenthesis
MMP-2 [3] = target: T3, MMP-2 (Homo sapiens, UniProt P08253); assay: as above; settings: read-out: MMP-2 Ki, value not in parenthesis
MMP-9 [4] = target: T4, MMP-9 (Homo sapiens, UniProt P14780); assay: as above; settings: read-out: MMP-9 Ki, value not in parenthesis
MMP-14 [5] = target: T1, MMP-14; assay: MMP-14 inhibition (in vitro Ki); settings: read-out: MMP-14 Ki (IC-50); Table 9; tested form: HCl
MMP-13 = MMP-13 (Homo sapiens, UniProt P45452); assay: MMP-13 inhibition (in vitro Ki); settings: read-out: MMP-13 Ki (IC-50); Table 9; tested form: HCl
MMP-1 [6] = target: T2, MMP-1; assay: MMP-1 inhibition (in vitro Ki); settings: read-out: MMP-1 Ki (IC-50); Table 9; tested form: HCl
MMP-9 [7] = target: T4, MMP-9; assay: MMP-9 inhibition (in vitro Ki); settings: read-out: MMP-9 Ki (IC-50); Table 9; tested form: HCl
MMP-2 [8] = target: T3, MMP-2; assay: MMP-2 inhibition (in vitro Ki); settings: read-out: MMP-2 Ki (IC-50); Table 9; tested form: HCl

SMILES | Ki (MMP-14 [1]; tested form: 2HCl) | Ki (MMP-1 [2]; tested form: 2HCl) | Ki (MMP-2 [3]; tested form: 2HCl) | Ki (MMP-9 [4]; tested form: 2HCl) | Ki (MMP-14 [5]) | Ki (MMP-13) | Ki (MMP-1 [6]) | Ki (MMP-9 [7]) | Ki (MMP-2 [8]) | other results
COCCN1CCC(C(=O)NO)(S(=O)(=O)N2CCN(c3ccc(OC(F)(F)C(F)F)cc3)CC2)CC1 | 1160 nM | 3.36 µM | 0.1 nM | 0.44 nM | – | – | – | – | – | –
O=C(NO)C1(S(=O)(=O)N2CCC(c3ncc(CCCCCC(F)(F)F)s3)CC2)CCOCC1 | – | – | – | – | 577 nM | 0.53 nM | > 10 µM | 32.9 nM | 1.44 nM | –
COCCN1CCC(C(=O)NO)(S(=O)(=O)N2CCN(c3ccc(OCC(F)(F)F)nn3)CC2)CC1 | > 10000 nM | > 10 µM | 47.3 nM | 112 nM | – | – | – | – | – | –
CCCCOc1ccc(N2CCN(S(=O)(=O)C3(C(=O)NO)CCN(C(=O)N4CCN(CC)C(=O)C4=O)CC3)CC2)cc1 | 1790 nM | 8.27 µM | 0.52 nM | 1.11 nM | – | – | – | – | – | –
CCCCOc1ccc(N2CCN(S(=O)(=O)C3(C(=O)NO)CCN(S(=O)(=O)c4cccs4)CC3)CC2)cc1 | 9800 nM | > 10 µM | 6.3 nM | 16.4 nM | – | – | – | – | – | –
CCCCc1cnc(N2CCN(S(=O)(=O)C3(C(=O)NO)CCN(CCOC)CC3)CC2)cn1 | 7890 nM | > 10 µM | 2.46 nM | 0.73 nM | – | – | – | – | – | –
CCCCCCc1ccc(N2CCN(S(=O)(=O)C3(C(=O)NO)CCOCC3)CC2)nc1 | – | – | – | – | – | – | – | – | – | Ki (MMP-14 [1]; tested form: HCl): 1430 nM; Ki (MMP-1 [2]; tested form: HCl): > 10 µM; Ki (MMP-2 [3]; tested form: HCl): 0.169 nM; Ki (MMP-9 [4]; tested form: HCl): 0.657 nM
Cc1csc(-c2ccc(C3CCN(S(=O)(=O)C4(C(=O)NO)CCOCC4)CC3)nc2)c1 | – | – | – | – | 859 nM | 0.15 nM | 1.22 µM | 6.59 nM | 0.48 nM | –
CCCCCCc1cnc(C2CCN(S(=O)(=O)C3(C(=O)NO)CCOCC3)CC2)s1 | – | – | – | – | 554 nM | 0.61 nM | > 10 µM | 6.93 nM | 1.25 nM | –
Cc1sc(C2CCN(S(=O)(=O)C3(C(=O)NO)CCOCC3)CC2)nc1-c1ccccc1 | – | – | – | – | > 10000 nM | 4140 nM | > 10 µM | > 10000 nM | 6130 nM | –
C=CCC(CC=C)(C(=O)NO)S(=O)(=O)N1CCC(c2ccc(CCC(F)(F)C(F)(F)F)cn2)CC1 | – | – | – | – | 6540 nM | 0.82 nM | 8.59 µM | 1.01 nM | 2.04 nM | –
